Biological target: Kappa-type opioid receptor (Homo sapiens, UniProt P41145)
Assay: Agonist activity at human kappa opioid receptor expressed in HEK-293 cells after 45 mins by [35S]GTP-gamma-S binding assay in presence of 10 uM of GDP
Type: cell-based, HEK293

Chains of the proteins cited; added tags and fusions are not shown. Lines headed by an entry give the natural chain unless they say otherwise; changes in a name come on top.
UniProt P41145: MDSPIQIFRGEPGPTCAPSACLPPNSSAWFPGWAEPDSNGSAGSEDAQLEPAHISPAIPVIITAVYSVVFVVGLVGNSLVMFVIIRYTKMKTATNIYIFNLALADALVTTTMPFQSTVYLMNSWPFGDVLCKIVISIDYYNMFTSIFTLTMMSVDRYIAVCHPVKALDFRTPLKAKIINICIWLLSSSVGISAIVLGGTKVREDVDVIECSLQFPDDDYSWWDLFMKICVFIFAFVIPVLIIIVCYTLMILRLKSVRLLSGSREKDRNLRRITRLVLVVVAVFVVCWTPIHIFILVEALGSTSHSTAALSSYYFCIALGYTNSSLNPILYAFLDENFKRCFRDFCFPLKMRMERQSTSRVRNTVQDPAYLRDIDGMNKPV

In the case of `COC(=O)N1CCN(C(=O)Cc2ccc(Cl)c(Cl)c2)C2C(N3CCCC3)CCCC21` (stereo unspecified), the EC50 is reported as 20 nM.
